Only a part is listed here, and it is no random draw. Results filed as inconclusive are left out. Active and inactive are the calls of the source. Rule for the calls, unless noted: active = hit-call score of the fitted dose curve at least 0.9, where 1 is the maximum; inactive = score below 0.9.
Experiments:
[1] = BSK_BT_PBMCCytotoxicity: PBMC Cytotoxicity Assessment in the BioMAP Diversity Plus: BT Assay (AID 2284225); conditions: primary human B cells with PBMC;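 note: PBMC viability measured by Alamar Blue dye reduction fluorescence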
How it was run: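 Primary human co-culture of B cells and PBMC, pre-dosed 1 h then activated with SEB and TSST-1. Cytotoxicity is taken from Alamar Blue dye reduction, added for 6 h at the end of a 90 h incubation.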

By UniProt entry, the sequences of proteins in these tests, tags left out.
UniProt P01375, whole entry: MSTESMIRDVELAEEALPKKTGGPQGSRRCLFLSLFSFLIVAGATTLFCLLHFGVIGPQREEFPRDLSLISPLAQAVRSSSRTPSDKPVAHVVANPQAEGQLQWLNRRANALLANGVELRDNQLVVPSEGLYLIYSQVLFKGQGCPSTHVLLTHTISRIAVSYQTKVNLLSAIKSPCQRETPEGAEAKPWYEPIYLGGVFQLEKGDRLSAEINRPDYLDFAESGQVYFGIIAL

[2] = read-out: Secreted IgG (sIgG), gene 3500; test: BSK_BT_sIgG: BioMAP Diversity Plus: BT Assay for Secreted IgG (sIgG) Biomarker Activity (AID 2284226); conditions: primary human B cells with PBMC
How it was run: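 Human B cell/PBMC co-culture; compound exposure 24 h; sIgG by ELISA; gain-of-signal fit vs DMSO baseline.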

[3] = BSK_BT_Bcell_Proliferation: Viability Assessment in the BioMAP Diversity Plus: BT Assay for B cell Proliferation (AID 2284227); conditions: primary human B cells with PBMC
How it was run: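 Human B cells co-cultured with PBMC were dosed with test chemicals and relative cell number was quantified by SRB staining at 72 h. Cells were fixed in 10% TCA, stained with 0.1% SRB and read at 560 nm. Activity was fitted in the positive direction against DMSO.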

[4] = read-out: Interleukin 6 (IL6), IL6 (gene 3569); test: BSK_BT_xIL6: BioMAP Diversity Plus: BT Assay for Interleukin 6 (IL6) Biomarker Activity (AID 2284228); conditions: primary human B cells with PBMC
How it was run: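 Secreted IL-6 in the primary human B cell plus PBMC system, measured by Luminex at 24 h post-chemical, DMSO as baseline. Alamar Blue viability: 75,000 cells/well, chemical 1 h before SEB/TSST-1 (20 ng/mL each), 90 h, then 6 h dye.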

[5] = read-out: Interleukin 17A (IL17A), IL17A (gene 3605); test: BSK_BT_xIL17A: BioMAP Diversity Plus: BT Assay for Interleukin 17A (IL17A) Biomarker Activity (AID 2284229); conditions: primary human B cells with PBMC
How it was run: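 Luminex xMAP quantification of secreted IL-17A after 24 h chemical exposure of a primary human B cell/PBMC co-culture. Signal increases fitted relative to DMSO negative control.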

[6] = read-out: Tumor necrosis factor (Homo sapiens) (UniProt P01375); test: BSK_BT_xTNFa: BioMAP Diversity Plus: BT Assay for Tumor necrosis factor alpha (TNF-alpha) Biomarker Activity (AID 2284230); conditions: primary human B cells with PBMC
How it was run: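 B cells with PBMC in co-culture, dosed and sampled at 24 h; secreted TNF-alpha measured by Luminex xMAP bead assay. Activity fitted in the gain direction against DMSO as negative control and baseline.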

[7] = read-out: Vascular cell adhesion molecule 1 (VCAM1), VCAM1 (gene 7412); test: BSK_MyoF_VCAM1: BioMAP Diversity Plus: MyoF Assay for Vascular cell adhesion molecule 1 (VCAM1) Biomarker Activity (AID 2284231); conditions: primary human lung fibroblasts
How it was run: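 ELISA readout of VCAM-1 on human lung fibroblast cultures 24 hours after dosing, analyzed for signal gain relative to DMSO. Overt cytotoxicity was checked by sulforhodamine B total-protein staining in parallel cultures.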

[8] = read-out: Collagen I, COL1A1 (gene 1277); test: BSK_MyoF_CollagenI: BioMAP Diversity Plus: MyoF Assay for Collagen I Biomarker Activity (AID 2284238); conditions: primary human lung fibroblasts
How it was run: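 Collagen I levels measured by ELISA on human lung fibroblast cultures 24 h post-dosing, with curve fitting in the positive direction relative to DMSO; SRB staining of parallel wells marked cytotoxicity.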

[9] = read-out: Collagen III, COL3A1 (gene 1281); test: BSK_MyoF_CollagenIII: BioMAP Diversity Plus: MyoF Assay for Collagen III Biomarker Activity (AID 2284239); conditions: primary human lung fibroblasts
How it was run: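 Collagen III biomarker quantified by ELISA in human lung fibroblast cultures 24 h after dosing. Activity fitted in the positive direction against DMSO as baseline.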

[10] = CCTE_Shafer_MEA_acute_burst_percentage_std: CCTE's Neural Acute Assay for Standard Deviation of Burst Percentage, Shafer Lab (AID 2284018);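 note: fitted in the negative direction so actives lower burst percentage SD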
How it was run: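 Value is percent change from baseline in the across-electrode SD of spikes-in-bursts percentage, wells with >/= 10 active electrodes. Acute 40-min exposure to 0.03-40 uM on DIV 13 or 15 rat cortical cultures, recorded at 37 C after 40-min baseline.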

[11] = CCTE_Shafer_MEA_acute_per_network_burst_spike_number_mean: CCTE's Neural Acute Assay for Average Number of Spikes in a Network Burst, Shafer Lab (AID 2284019);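 note: curve fitted for loss of signal so actives reduce spikes per network burst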
How it was run: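 Percent change from baseline in mean spikes per network burst, spikes detected at 8x rms noise. Each compound at 0.03-40 uM in at least three wells of rat cortical cultures, recorded 40 min before and 40 min during exposure.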

[12] = CCTE_Shafer_MEA_acute_per_network_burst_spike_number_std: CCTE's Neural Acute Assay for Standard Deviation of Number of Spikes in a Network Burst, Shafer Lab (AID 2284020);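 note: fitted for decrease in spike-number SD versus DMSO so actives lower it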
How it was run: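 Endpoint: percent change from 40 min baseline in standard deviation of spikes per network burst, after 40 min compound exposure (0.03-40 uM, 37 C). Cortical rat neurons on MEA at DIV 13 or 15; spikes detected at 8x rms noise, 300-5000 Hz band-pass.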

[13] = CCTE_Shafer_MEA_acute_per_network_burst_electrodes_number_mean: CCTE's Neural Acute Assay for Mean Number of Electrodes in a Network Burst, Shafer Lab (AID 2284021);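 note: curves fitted for decreases only so hits reduce electrodes per burst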
How it was run: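 Percent change from baseline was computed as mean electrode count per network burst, comparing 40 min recordings before and during compound (0.03-40 uM) exposure. Cultures were rat cortical neurons at DIV 13 or 15, recorded on MEAs at 37 C with an adaptive 8x rms threshold.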

[14] = CCTE_Shafer_MEA_acute_network_burst_percentage: CCTE's Neural Acute Assay for Percentage of Network Bursts, Shafer Lab (AID 2284022);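 note: curves fitted for loss so actives lower network burst percentage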
How it was run: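 Network burst percentage (spikes in network bursts divided by total spikes) recorded at 37 C over 40 min baseline and 40 min after compound, 0.03-40 uM, in rat cortical cultures at DIV 13 or 15. Analysed as percent change from baseline versus DMSO.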

[15] = CCTE_Shafer_MEA_acute_cross_correlation_area: CCTE's Neural Acute Assay for Area of Cross Correlation, Shafer Lab (AID 2284024);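 note: area under pooled inter-electrode spike cross-correlation near zero lag as percent change from own baseline; curves fitted for loss of cross-correlation area so actives lower synchrony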
How it was run: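 Percent change in well-wide cross-correlation area (window around zero lag) between 40 min baseline and 40 min post-compound recordings, 37 C; rat cortical cultures on MEA at DIV 13 or 15, dosed 0.03-40 uM, wells needing >/= 10 active electrodes.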

[16] = CCTE_Shafer_MEA_acute_cross_correlation_HWHM: CCTE's Neural Acute Assay for Cross Correlation at Half Width at Half Maximum, Shafer Lab (AID 2284026);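 note: spontaneous network firing of rat primary cortical neurons on multiwell microelectrode arrays; percent change per well from pre-dose baseline in spike cross-correlogram half width; hits are a decrease in cross-correlogram half width relative to DMSO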
How it was run: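 Per-well percent change in cross-correlogram half width at half maximum, derived from 40-min recordings before and after compound (0.03-40 uM) at 37 C. Cultures were rat cortical neurons, DIV 13 or 15, with adaptive spike detection at 8x rms.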

[17] = CCTE_Shafer_MEA_acute_synchrony_index: CCTE's Neural Acute Assay for Synchrony, Shafer Lab (AID 2284027);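 note: network synchrony index of spontaneous spiking in primary rat cortical neurons on MEAs; fitted for loss of signal so actives lower synchrony relative to DMSO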
How it was run: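 Rat cortical cultures, DIV 13/15; spikes detected at 8x rms noise, 300-5000 Hz band-pass. Compound 0.03-40 uM, ≥3 wells; 40-min pre- and post-exposure recordings, 37 C. Readout: % change in synchrony index; loss-of-signal fit vs DMSO.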

DIO2 (gene 1734) = test: CCTE_GLTED_hDIO2: CCTE's human Deiodinase 2 (DIO2) Inhibition Assay, Great Lakes Toxicology and Ecology Division (GLTED) Lab (AID 2284050; active = hit-call score of the fitted dose curve at least 0.9, where 1 is the maximum)
How it was run: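 Readout: absorbance from Sandell-Kolthoff detection of free iodide released by human DIO2 during a 3 h incubation with chemical. Cell-free format, n=3; activity fitted relative to DMSO negative control.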

DIO3 (gene 1735) = test: CCTE_GLTED_hDIO3: CCTE's human Deiodinase 3 (DIO3) Inhibition Assay, Great Lakes Toxicology and Ecology Division (GLTED) Lab (AID 2284055; active = hit-call score of the fitted dose curve at least 0.9, where 1 is the maximum;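 note: potency is for inhibition seen as loss of released iodide signal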)
How it was run: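 hDIO3 (adenovirus-expressed) + test chemical, 3 h incubation; free iodide quantified by Sandell-Kolthoff reaction, absorbance read-out. DMSO negative control, n=3.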

[18] = CCTE_Shafer_MEA_acute_LDH: CCTE's Lactate Dehydrogenase Assay for Cytotoxicity in the Neural Acute Assay, Shafer Lab (AID 2284086; active = hit-call score of the fitted dose curve at least 0.9, where 1 is the maximum;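 note: active means LDH release rises above DMSO vehicle level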)
How it was run: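 LDH absorbance at 490 nm in medium taken right after 40-min compound exposure; rat primary cortical neuron networks on MEA plates, days post-plating 13 or 15. Increase over DMSO baseline scored as cytotoxicity.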

Row | Structure (SMILES) | outcome [1] | outcome [2] | outcome [3] | outcome [4] | outcome [5] | outcome [6] | outcome [7] | outcome [8] | outcome [9] | outcome [10] | AC50 [11] | outcome [12] | outcome [13] | outcome [14] | AC50 [15] | outcome [16] | outcome [17] | AC50 (DIO2 (gene 1734)) | AC50 (DIO3 (gene 1735)) | outcome [18]
1 | CC(C)OP(OC(C)C)OC(C)C | inactive | inactive | inactive | inactive | inactive | inactive | inactive | inactive | inactive | – | – | – | – | – | – | – | – | – | – | –
2 | O=[N+]([O-])c1ccccc1[N+](=O)[O-] | – | – | – | – | – | – | – | – | – | inactive | active: 1.44 µM | inactive | inactive | inactive | active: 15.5 µM | inactive | inactive | active: 52.3 µM | active: 42.9 µM | inactive
